The target of the assay is E3 ubiquitin-protein ligase XIAP (Homo sapiens, UniProt P98170). As to the kind of experiment: Inhibition of XIAP-BIR3 domain (unknown origin).

The chains behind the UniProt entries cited, without tags or fusion partners.
UniProt P98170, whole entry: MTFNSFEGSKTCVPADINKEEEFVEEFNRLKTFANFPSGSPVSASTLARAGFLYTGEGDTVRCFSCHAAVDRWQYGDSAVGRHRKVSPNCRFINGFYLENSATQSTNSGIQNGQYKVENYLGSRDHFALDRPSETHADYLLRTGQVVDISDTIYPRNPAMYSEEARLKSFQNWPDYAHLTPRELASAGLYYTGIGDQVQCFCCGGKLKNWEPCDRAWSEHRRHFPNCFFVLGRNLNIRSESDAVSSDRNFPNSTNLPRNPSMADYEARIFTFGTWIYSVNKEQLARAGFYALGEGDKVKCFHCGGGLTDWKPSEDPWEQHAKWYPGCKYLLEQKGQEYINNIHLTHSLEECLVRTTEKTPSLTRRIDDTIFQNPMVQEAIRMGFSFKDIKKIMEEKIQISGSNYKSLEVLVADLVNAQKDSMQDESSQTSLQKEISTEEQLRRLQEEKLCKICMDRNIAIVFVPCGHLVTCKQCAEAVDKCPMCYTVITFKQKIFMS

With `CN[C@@H](C)C(=O)N[C@H]1COc2ccccc2N(Cc2c(OC)ccc3cc(Br)ccc23)C1=O`, the IC50 is > 54 µM.

These data come from ChEMBL document CHEMBL4619711, “Medicinal Chemistry of Inhibiting RING-Type E3 Ubiquitin Ligases” (J Med Chem, 2020).
